The values that follow are results of earlier work, collected in US4584404A, “Substituted phenoxyphenylproply dimethylamines” (priority 1983, dated 1986).

Structures are written as SMILES.

The test system of the data set is 5HT uptake vs NE uptake. Particulars: cited from earlier work.

Turning to `CNCCC(Oc1ccc(C(F)(F)F)cc1)c1ccccc1` (centres unmarked) [fluoxetine, 3-phenyl-3-(p-trifluoromethyl)phenoxypropyl methylamine], the “uptake inhibition in words, earlier patents” value (5HT, NE, dopamine) is “selective 5HT uptake inhibitor”. Besides, the “ratio of the 50% inhibitory concentrations for 5HT uptake vs NE uptake” value (x to 1, 0.06 to 20) is reported as “about 333”.
